Data on 1 molecule can be found in ChEMBL document CHEMBL1127404 (J Med Chem, 1994).

pKi: −log10 of the molar value.

This experiment deals with Prothrombin (Homo sapiens, UniProt P00734). Nature of the experiment: In vitro binding affinity by measuring the inhibition of human thrombin.

As a reminder, the pKi is the negative decadic logarithm of the Ki, by convention in mol/L. Take `CC1CNc2c(cccc2S(=O)(=O)N[C@@H](CCCNC(=N)N)C(=O)N2CC[C@@H](C)C[C@@H]2C(=O)O)C1` (stereo partly specified) [ARGATROBAN]: the pKi is 7.70.
